The record followed here is ChEMBL document CHEMBL3745681, “Synthesis, Biological Evaluation, and Utility of Fluorescent Ligands Targeting the μ-Opioid Receptor” (2015).

Chains of the proteins cited; added tags and fusions are not shown.
UniProt P35372, whole entry, looked up: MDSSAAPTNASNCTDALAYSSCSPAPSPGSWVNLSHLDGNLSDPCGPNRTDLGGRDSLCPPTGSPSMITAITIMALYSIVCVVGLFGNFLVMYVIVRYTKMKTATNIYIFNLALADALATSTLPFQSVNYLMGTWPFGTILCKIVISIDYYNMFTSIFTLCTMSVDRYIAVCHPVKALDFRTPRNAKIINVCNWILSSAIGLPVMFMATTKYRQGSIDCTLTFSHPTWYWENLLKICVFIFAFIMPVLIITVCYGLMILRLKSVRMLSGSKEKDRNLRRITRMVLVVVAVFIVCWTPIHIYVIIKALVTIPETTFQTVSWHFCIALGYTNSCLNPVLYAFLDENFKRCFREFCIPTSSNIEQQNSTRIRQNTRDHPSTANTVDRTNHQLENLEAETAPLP

Test [1] addresses T1, Mu-type opioid receptor (Homo sapiens, UniProt P35372). As to the kind of experiment: Displacement of [3H]DAMGO from human MOR expressed in HEK293 cells preincubated for 1 hr followed by radioligand addition measured after 1 hr by liquid scintillation counting analysis. For orientation: Loss of bound radioactivity is the signal in a displacement assay; it reports binding, not function.

For test [2], the target named is T1, Mu-type opioid receptor. As to the kind of experiment: Displacement of 2-((1E,3E,5E)-5-(1-Ethyl-3,3-dimethyl-5-sulfoindolin-2-ylidene)-penta-1,3-dien-1-yl)-1-(6-((6-((6S,7R,7aR,12bS)-9-hydroxy-7-methoxy-3-methyl-1,2,3,4,5,6,7,7a-octahydro-4a,7-ethano-4,12-methanobenzofuro[3,2-e]isoquinoline-6-carboxamido)hexyl)-amino)-6-oxohexyl)-3,3-dimethyl-3H-indol-1-ium-5-sulfonate,2,2,2-Trifluoroacetate Salt from human MOR expressed in HEK293 cells by Cheng-Pruso.

Consider `CO[C@]12CC[C@@]3(C[C@@H]1C(C)(C)O)[C@H]1Cc4ccc(O)c5c4[C@@]3(CCN1CC1CC1)[C@H]2O5`, for which the negative logarithm of the Ki (pKi) at Mu-type opioid receptor [1] came to 9.7; on Mu-type opioid receptor [2], 9.91.

The pKi is −log10 of the Ki, conventionally taken in molar units.
